## Vapor pressure values, as collected for the OPERA models

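The numbers are reported measurements, compiled and curated for the OPERA QSAR suite. The files give a single number for a compound and property, which may rest on several reports. Conditions of the individual experiments are not part of the data. A value may pool stereoisomers or salt forms, and the file does not say which form was measured. Some entries may be limits or estimates that an upstream database listed as plain numbers.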

Vapor pressures (log10 mmHg) refer to near room temperature, 15 to 30 °C; higher is more volatile. The databases behind each value are named after "via".

CCCCCCCCOC(=O)[C@@H](C)Oc1ccc(Cl)cc1C [Octyl (R)-2-(4-chloro-2-methylphenoxy)propionate] is reported with vapor pressure -4.858 (log10 mmHg) (via eChemPortal).
C=C[Si](C)(Cl)Cl [Silane, dichloroethenylmethyl-] is reported with vapor pressure 1.672 (log10 mmHg) (via eChemPortal).
CC=C(C)C#N [2-Methyl-2-butenenitrile] is reported with vapor pressure 1.871 (log10 mmHg) (via PubChem).
O=C=NCC1CCCC(CN=C=O)C1 (stereo unspecified) [1,3-Bis(isocyanatomethyl)cyclohexane] is reported with vapor pressure -2.824 (log10 mmHg) (via eChemPortal).
CO[Si](CCCNCCNCCN)(OC)OC is reported with vapor pressure -3.949 (log10 mmHg) (via eChemPortal).
Clc1cc(-c2c(Cl)ccc(Cl)c2Cl)cc(Cl)c1Cl [2,3,3',4',5',6-Hexachlorobiphenyl] is reported with vapor pressure -5.475 (log10 mmHg) (via OCHEM).
CCCN(CCc1cccs1)C1CCc2c(O)cccc2C1.Cl (stereo unspecified) [Rotigotine hydrochloride] is reported with vapor pressure -9.467 (log10 mmHg) (via eChemPortal).
C1CCC2=NCCCN2CC1 [1,8-Diazabicyclo[5.4.0]undec-7-ene] is reported with vapor pressure -1.736 (log10 mmHg) (via eChemPortal).
CCCCN(C)C [N,N-Dimethylbutylamine] is reported with vapor pressure 1.701 (log10 mmHg) (via eChemPortal).
C=C(C)C(=O)OCCCCCCCCCCCC [Dodecyl 2-methylacrylate] is reported with vapor pressure -3.347 (log10 mmHg) (via eChemPortal).
OC1(c2ccc(Cl)cc2)CCNCC1 [4-(4-Chlorophenyl)-4-piperidinol] is reported with vapor pressure -7.32 (log10 mmHg) (via eChemPortal).
CCC=C(C)C=O [2-Methylpent-2-enal] is reported with vapor pressure 0.827 (log10 mmHg) (via eChemPortal).
CN(C)C(C)(C)CO [2-(Dimethylamino)-2-methylpropan-1-ol] is reported with vapor pressure 0.733 (log10 mmHg) (via eChemPortal).
C=C(Cl)C(=C)Cl [2,3-Dichloro-1,3-butadiene] is reported with vapor pressure 1.952 (log10 mmHg) (via eChemPortal).
Brc1cc(Br)c(Oc2ccc(Br)c(Br)c2Br)cc1Br [2,2',3,4,4',5'-Hexabromodiphenyl Ether] is reported with vapor pressure -8.553 (log10 mmHg) (via OCHEM).
CC1CCNCC1 [Piperidine, 4-methyl-] is reported with vapor pressure 1.079 (log10 mmHg) (via eChemPortal).
Clc1cccc(-c2c(Cl)cc(Cl)c(Cl)c2Cl)c1Cl [PCB 131] is reported with vapor pressure -5.025 (log10 mmHg) (via OCHEM).
C=C(C)CCC [2-Methyl-1-pentene] is reported with vapor pressure 2.29 (log10 mmHg) (via OCHEM).
c1ccc(-c2cnc(-c3ccccc3)o2)cc1 [2,5-Diphenyloxazole] is reported with vapor pressure -4.921 (log10 mmHg) (via eChemPortal).
COC(C)CCO (stereo unspecified) [3-Methoxybutan-1-ol] is reported with vapor pressure -0.75 (log10 mmHg) (via eChemPortal).
Cc1c(Cl)cc(-c2ccc(O)nn2)cc1Cl [Diclomezine] is reported with vapor pressure -7.011 (log10 mmHg) (via OCHEM).
COc1ccc(C(OC[C@H]2O[C@@H](n3ccc(NC(=O)c4ccccc4)nc3=O)C[C@@H]2O)(c2ccccc2)c2ccc(OC)cc2)cc1 is reported with vapor pressure -9.319 (log10 mmHg) (via eChemPortal).
Brc1cnc2ccccc2c1 [Quinoline, 3-bromo-] is reported with vapor pressure -2.833 (log10 mmHg) (via eChemPortal).
FC(F)(F)C(F)(F)C(F)(F)I [Heptafluoropropyl iodide] is reported with vapor pressure 2.564 (log10 mmHg) (via ChemicalBook).
CC(C)=CCl [2,2-Dimethylvinyl chloride] is reported with vapor pressure 2.218 (log10 mmHg) (via PubChem).
Cc1cc(N=Nc2cccc([N+](=O)[O-])c2)ccc1N(C)C [N,N-Dimethyl-4-((m-nitrophenyl)azo)-o-toluidine] is reported with vapor pressure -6.699 (log10 mmHg) (via OCHEM).
CCOC(F)(F)C(F)(F)C(F)(F)C(F)(F)F [Ethyl perfluorobutyl ether] is reported with vapor pressure 2.008 (log10 mmHg) (via ICF).
CCCC[Si](C)(C)O[Si](C)(C)O[Si](C)(C)O[Si](C)(C)O[SiH](C)C [Pentasiloxane, 1-butyl-1,1,3,3,5,5,7,7,9,9-decamethyl-] is reported with vapor pressure -1.601 (log10 mmHg) (via eChemPortal).
Clc1cc(Cl)cc(-c2c(Cl)cc(Cl)c(Cl)c2Cl)c1 [2,3,3',4,5',6-Hexachlorobiphenyl] is reported with vapor pressure -4.983 (log10 mmHg) (via OCHEM).
C[C@@H]1CC[C@H](C)C1 is reported with vapor pressure 1.82 (log10 mmHg) (via OCHEM).
C=CC(C)(O)CC (stereo unspecified) [1-Penten-3-ol, 3-methyl-] is reported with vapor pressure 0.836 (log10 mmHg) (via eChemPortal).
CCCCCCCC(=O)SCCC[Si](OCC)(OCC)OCC [Octanethioic acid, S-[3-(triethoxysilyl)propyl] ester] is reported with vapor pressure -4.824 (log10 mmHg) (via eChemPortal).
Clc1cccc(-c2ccc(Cl)c(Cl)c2)c1 [3,3',4-Trichlorobiphenyl] is reported with vapor pressure -3.975 (log10 mmHg) (via OCHEM).
C=C(C)CNCC [N-Ethyl-2-methylallylamine] is reported with vapor pressure 1 (log10 mmHg) (via eChemPortal).
COc1c(Cl)cccc1Cl [2,6-Dichloroanisole] is reported with vapor pressure -4.085 (log10 mmHg) (via OCHEM).
N#CI [Cyanogen iodide] is reported with vapor pressure 0 (log10 mmHg) (via PubChem).
CC[Si](Cl)(Cl)CC [Diethyldichlorosilane] is reported with vapor pressure 1.076 (log10 mmHg) (via PubChem).

Excerpt, the final 2 entries:

For N#CI [Cyanogen iodide] the data give vapor pressure 0 (log10 mmHg) (via PubChem).
For CC[Si](Cl)(Cl)CC [Diethyldichlorosilane] the data give vapor pressure 1.076 (log10 mmHg) (via PubChem).

Source: data files of OPERA 2.9 (Mansouri et al.), github.com/kmansouri/OPERA.